Target: Kappa-type opioid receptor (Homo sapiens, UniProt P41145)
Test: Agonist activity at human kappa-type opioid receptor expressed in CHO-K1 cells assessed as forskolin-induced cAMP accumulation after 30 mins in presence of forskolin by luminescence-based HitHunter cAMP assay
Type: functional, cell-based
How it was run: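 CHO-K1 cells expressing the receptor were kept at 37 °C in 5% CO2. cAMP data were normalized to vehicle and forskolin-only controls. Each compound was run in triplicate in parallel assays in ≥2 independent experiments. EC50 and Emax came from sigmoidal nonlinear regression and were averaged across experiments as mean ± SEM.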

The chains behind the UniProt entries cited, without tags or fusion partners. Where a name states a change or a piece, a line headed by the entry shows the natural chain unless it says otherwise.
UniProt P41145: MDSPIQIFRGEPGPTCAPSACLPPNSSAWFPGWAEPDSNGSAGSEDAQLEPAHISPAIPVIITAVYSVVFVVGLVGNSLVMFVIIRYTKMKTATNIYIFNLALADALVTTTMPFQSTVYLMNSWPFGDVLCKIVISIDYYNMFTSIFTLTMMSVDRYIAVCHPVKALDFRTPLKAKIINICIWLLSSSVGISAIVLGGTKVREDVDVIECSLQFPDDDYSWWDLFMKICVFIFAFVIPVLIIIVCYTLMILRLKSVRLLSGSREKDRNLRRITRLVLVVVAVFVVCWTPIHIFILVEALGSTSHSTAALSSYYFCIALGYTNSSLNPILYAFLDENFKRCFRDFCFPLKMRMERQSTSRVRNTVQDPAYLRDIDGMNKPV

SMILES: COC(=O)[C@@H]1C[C@H](O)C(=O)[C@H]2[C@@]1(C)CC[C@H]1C(=O)O[C@H](c3ccoc3)C[C@]21C [SALVINORIN B]
- EC50: 2.4 nM

— ChEMBL document CHEMBL4049431 (J Med Chem, 2017)
